Experimental data from patent publication US20220041603A1, “SRC INHIBITOR COMPOUNDS FOR SKELETAL MUSCLE MODULATION, METHODS AND USES THEREOF” (SOCIETE DES PRODUITS NESTLE S.A., priority 2018, published 2022).

Tested on: human primary muscle cells
Assay: Assay for myogenesis (troponin-T myotube detection)
Assay type: cell-based
Settings: human primary myoblasts, donor 8 and donor 4; dose dependent response; compound treatment 96 hours after differentiation induction
Description: The inventors developed a high content screening to test in vitro compounds on human primary adult muscle cells. Human Skeletal Muscle Myoblasts (HSMM) were purchased from Lonza (https://bioscience.lonza.com). These cells were isolated from the upper arm or leg muscle tissue of normal donors and used after the second passage. Several donors were tested to ensure cell viability and purity before selecting the final donors, which are a person (Donor 8) and a person (Donor 4).
In order to confirm the results from the primary assay described above, a secondary assay for myogenesis in vitro on all the hits obtained in this primary screening assay. This secondary assay focused on the later stage of myogenesis when the muscle cells fuse together and form multinucleated myotubes. […]
Fusion factor, which is the % of nuclei that are inside the multinucleated myotubes compare to total nuclei and give a readout for muscle cell differentiation.
Myotube area, which is measured based on the Troponin T staining and give a readout on the myotube size and muscle fiber growth.
Human primary myoblasts were seeded in 384 well plates at a density of 3′000 cells per well in skeletal muscle growth medium (SKM-M, AMSbio). […] Custom module analysis based on Multi-Wavelength Cell Scoring of the MetaXpress software was used for quantification. […]

## Cc1ccc(-c2nn(C(C)(C)C)c3ncnc(N)c23)cc1 [PP1, 1-(1,1-Dimethylethyl)-3-(4-methylphenyl)-1H-pyrazolo[3,4-d]pyrimidin-4-amine]
  myofiber growth (area covered by troponinT-positive myotubes): enhances

## CC(C)(C)n1nc(-c2ccc(Cl)cc2)c2c(N)ncnc21 [PP2, 3-(4-Chlorophenyl)-1-(1,1-dimethylethyl)-1H-pyrazolo[3,4-d]pyrimidin-4-amine]
  myofiber growth (area covered by troponinT-positive myotubes): enhances
